Type in all cases: cell-based
Conditions in all cases: HEK293-A

The chains behind the UniProt entries cited, without tags or fusion partners. Where a name states a change or a piece, a line headed by the entry shows the natural chain unless it says otherwise.
UniProt Q9R1K6: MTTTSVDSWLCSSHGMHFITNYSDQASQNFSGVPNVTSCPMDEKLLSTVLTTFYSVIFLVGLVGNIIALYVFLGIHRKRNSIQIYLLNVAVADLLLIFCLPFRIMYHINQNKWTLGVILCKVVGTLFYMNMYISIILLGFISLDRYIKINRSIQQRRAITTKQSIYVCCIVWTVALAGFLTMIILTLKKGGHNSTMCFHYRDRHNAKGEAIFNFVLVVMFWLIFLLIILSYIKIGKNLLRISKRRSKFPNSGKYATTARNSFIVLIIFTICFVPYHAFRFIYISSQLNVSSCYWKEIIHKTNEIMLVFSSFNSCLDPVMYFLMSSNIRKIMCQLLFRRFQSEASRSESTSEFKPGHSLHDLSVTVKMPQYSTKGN
UniProt Q8BFU7: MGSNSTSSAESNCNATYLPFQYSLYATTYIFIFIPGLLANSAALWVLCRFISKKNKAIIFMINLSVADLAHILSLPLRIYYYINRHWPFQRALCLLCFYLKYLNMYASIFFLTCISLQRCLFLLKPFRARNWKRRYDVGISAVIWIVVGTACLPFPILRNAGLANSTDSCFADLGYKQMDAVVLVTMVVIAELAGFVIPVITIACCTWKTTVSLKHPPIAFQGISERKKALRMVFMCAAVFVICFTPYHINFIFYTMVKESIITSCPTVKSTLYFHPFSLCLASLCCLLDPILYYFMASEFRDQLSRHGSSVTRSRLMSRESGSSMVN

For experiment [1], the target named is Probable G-protein coupled receptor 34 (Mus musculus) (UniProt Q9R1K6). Briefly: Agonist activity at mouse GPR34 expressed in HEK293A cells cotransfected with chimeric Galphaq/il after 1.5 hrs by alkaline phosphatase tagged-TGFalpha shedding assay.
The target is the same in experiment [2]. Nature of the experiment: Intrinsic activity at mouse GPR34 expressed in HEK293A cells cotransfected with chimeric Galphaq/il after 1.5 hrs by alkaline phosphatase tagged-TGFalpha shedding assay relative to O-(Hydroxy(((2R,3R)-2-(((3-(2-((3-phenoxybenzyl)oxy)phenyl)-propanoyl)oxy)methyl)tetrahydro-2H-pyran-3-yl)oxy)phosphoryl)-L-serine. The method in brief: (§1)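 RIA is Emax/EC50 from the AP-TGFα shedding concentration–response fits, expressed relative to a reference agonist, whose RIA is 1 by definition. It is a dimensionless estimate of agonist activity. The GPR34 assay used HEK293A cells with chimeric Gαq/i1 and a 1.5 h incubation; the P2Y10 assay used HEK293A cells.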

Experiment [3] addresses Putative P2Y purinoceptor 10 (Mus musculus) (UniProt Q8BFU7). Briefly: Agonist activity at mouse P2Y10 receptor expressed in HEK293A cells after 1.5 hrs by alkaline phosphatase tagged-TGFalpha shedding assay. Summed up: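 Transient transfection of HEK293 cells with AP-TGFα plus the mouse receptor. For GPR34, HEK293A cells also got a chimeric Gαq/i1 subunit; P2Y10 was run in HEK293A and GPR174 in HEK293FT. Cells were seeded 24 h post-transfection in 5 mM HEPES (pH 7.4) HBSS onto serial 3.2-fold compound dilutions (top final 32 μM or lower, limited by mock-cell signal). Ki16425 was present, and incubation ran 1.5 h.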

For experiment [4] the target is unchanged. Briefly: Intrinsic activity at mouse P2Y10 receptor expressed in HEK293A cells after 1.5 hrs by alkaline phosphatase tagged-TGFalpha shedding assay relative to diF-C3-ph-o-O-C11. Summed up: as §1

Active and inactive are the calls of the source. The calls are words filed in the database; no cut-off is given here. Where only a bound is given, the exact number is not on record here.

The Emax is the maximal effect, on the per cent scale that the assay sets. `N[C@@H](COP(=O)(O)OC[C@H]1OCCC[C@H]1OC(=O)CCc1cccc(OCc2cccc(Oc3ccccc3)c2)c1)C(=O)O`: in experiment [1], the Emax entry was “inactive” and the pEC50 entry is “inactive”. Further, the Intrinsic activity entry in experiment [2] is “inactive”.

Turning to `CCCCCCCCCCCOc1ccccc1CCC(=O)OC[C@H]1OCC=C[C@@H]1OP(=O)(O)OC[C@H](N)C(=O)O`, in experiment [1], the Emax is less than 3% and the pEC50 entry is “inactive”. Moreover, the Intrinsic activity entry in experiment [2] is “inactive”.

Consider `CCCCCCCCCCCOc1ccccc1CCC(=O)OC[C@H]1OCC=C[C@H]1OP(=O)(O)OC[C@H](N)C(=O)O`, for which the Emax in experiment [1] was determined as 5%. This compound came in with an Intrinsic activity in experiment [2] of 0.086.

Consider `CCCCCCCCCCCOc1ccccc1CCC(=O)OCc1ccc(OP(=O)(O)OC[C@H](N)C(=O)O)cc1`, for which, in experiment [1], the Emax entry is “inactive” and the pEC50 entry is “inactive”. Also, in experiment [2], the Intrinsic activity entry is “inactive”.

As for `CCCCCCCC/C=C\CCCCCCCC(=O)O[C@H]1C=CCO[C@@H]1COP(=O)(O)OC[C@H](N)C(=O)O`, in experiment [1], the Emax entry was “inactive” and the pEC50 result is “inactive”. Besides, the Intrinsic activity result in experiment [2] is “inactive”.

Regarding `Cc1ccc(Oc2cccc(COc3ccccc3CCC(=O)O[C@@H]3CCCO[C@@H]3COP(=O)(O)OC[C@H](N)C(=O)O)c2)cc1`, in experiment [3], the Emax result is “inactive” and the pEC50 result is “inactive”. The Intrinsic activity result in experiment [4] was “inactive”.

Turning to `CCCCCCCCCCCOc1ccccc1CCC(=O)OCc1cccc(OP(=O)(O)OC[C@H](N)C(=O)O)c1`, in experiment [1], the Emax entry is “inactive” and the pEC50 result was “inactive”. Further, in experiment [2], the Intrinsic activity entry is “inactive”.

On to `CCCCCCCC/C=C\CCCCCCCC(=O)O[C@H]1CCCO[C@@H]1COP(=O)(O)OC[C@H](N)C(=O)O`, for which the Emax result in experiment [3] and in experiment [1] was “inactive” each time. Besides, the pEC50 result in experiment [3] and in experiment [1] was “inactive” each time. Further, the Intrinsic activity entry in experiment [4] and in experiment [2] was “inactive” in each case.

For `CCCCCCCC/C=C\CCCCCCCC(=O)OC[C@@H]1OCCC[C@H]1OP(=O)(O)OC[C@@H](N)C(=O)O` (single isomer, unassigned), the Emax in experiment [3] stood at 3.9%. Moreover, the Intrinsic activity in experiment [4] was 0.0014.

Consider `N[C@@H](COP(=O)(O)O[C@@H]1CCCO[C@@H]1COC(=O)CCc1ccc(OCc2cccc(Oc3ccccc3)c2)cc1)C(=O)O`, for which, in experiment [1], the Emax result was “inactive” and the pEC50 entry is “inactive”. In addition, the Intrinsic activity entry in experiment [2] is “inactive”.

Take `CCCCCCCC/C=C\CCCCCCCC(=O)O[C@@H]1CCCO[C@@H]1COP(=O)(O)OC[C@H](N)C(=O)O`: the Emax result in experiment [3] and in experiment [1] was “inactive” in each case. Further, the Intrinsic activity entry in experiment [4] and in experiment [2] was “inactive” in each case.

For the compound `CCCCCCCC/C=C\CCCCCCCC(=O)OC[C@@H]1OCCC[C@@H]1OP(=O)(O)OC[C@@H](N)C(=O)O` (single isomer, unassigned), in experiment [3], the Emax was less than 3% and the pEC50 entry was “inactive”. In addition, the Intrinsic activity result in experiment [4] was “inactive”.

`CCCCCCCC/C=C\CCCCCCCC(=O)O[C@@H]1C=CCO[C@@H]1COP(=O)(O)OC[C@H](N)C(=O)O`: in experiment [1], the Emax was determined as 3.8%. Also, the Intrinsic activity in experiment [2] was found to be 0.089.
